Among the data in PubChem BioAssay AID504766 (The Scripps Research Institute Molecular Screening Center, 2011) are inhibition values, retold here.

Protein sequences, listed by entry. Tags and fused reporters are not part of them. Residues count along the entry.
UniProt P51843, 207-470 limits assumed: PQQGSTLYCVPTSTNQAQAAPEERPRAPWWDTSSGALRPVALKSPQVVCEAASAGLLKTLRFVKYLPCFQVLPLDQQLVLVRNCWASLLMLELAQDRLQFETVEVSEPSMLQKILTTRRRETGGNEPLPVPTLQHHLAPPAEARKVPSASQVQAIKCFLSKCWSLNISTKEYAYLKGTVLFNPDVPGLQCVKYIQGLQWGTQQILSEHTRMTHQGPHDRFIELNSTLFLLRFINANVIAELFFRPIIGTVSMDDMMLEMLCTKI

Each structure is given as a SMILES string. This is a selection; strong and weak results do not stand in their true shares. Some tests of the compounds listed are not included; inactive here does not mean inactive elsewhere. Activity calls are given as the source filed them.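 Rule for the calls: active = inhibition above the mean over all tested compounds plus 3 SD (cut at about 4.2% in these data); inactive = the rest.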

This assay deals with Nuclear receptor subfamily 0 group B member 1 (Homo sapiens) (UniProt P51843). The assay is described as follows: DAX1 (NR0B1) inhibitors, primary screen, cell-based, HEK293, Gal4-DAX1, luciferase luminescence (AID 504766).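 Note: 0% = DAX1-transfected cells with DMSO and 100% = empty-vector control cells with DMSO; inhibition shows as a rise in luminescence from relieved DAX1 repression.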 Particulars: HEK293 Gal4-DAX1 luciferase reporter, at 6.75 µM, hits give high values.
For the molecule `COc1cc(C(=O)NCC2(N(C)C)CCCCC2)c([N+](=O)[O-])cc1OC`, the inhibition was inactive: 1.92%.

Take `CN(C)C1(CNC(=O)c2ccc(Br)cc2)CCCCC1`: the inhibition is inactive: 2%.

On to `O=C(NCC1(N2CCCCC2)CCCCC1)c1cccc(Cl)c1`, for which the inhibition is inactive: 2.91%.

Regarding `COc1cccc(C(=O)NCC2(N3CCCCC3)CCCCC2)c1`, the inhibition is inactive: 2.24%.

As for `COc1ccc(Cl)cc1C(=O)NCC1(N(C)C)CCCCC1`, the inhibition was inactive: 1.58%.

As to `O=C(OC1CN2CCC1CC2)C(CO)(c1ccccc1)c1ccccc1` (stereo unspecified), the inhibition was inactive: 0.54%.

For the molecule `CC(C)Oc1ccc(C(=O)NCC2(N(C)C)CCCCC2)cc1`, the inhibition is inactive: 1.13%.

In the case of `O=C(OCCN1CCCC1)C(O)(c1ccccc1)c1ccccc1`, the inhibition was inactive: 1.58%.

Consider `CN(C)c1cccc(C(=O)NCC2(N(C)C)CCCCC2)c1`, for which the inhibition is inactive: 0.31%.

As for `C=C(C)C#CC(O)(C(=O)OC1CCN(C)CC1)c1ccccc1` (stereo unspecified), the inhibition is inactive: 0.6%.

Take `COc1ccc(Br)c(C(=O)NCC2(N3CCCCC3)CCCCC2)c1`: the inhibition was inactive: 1.08%.

For the molecule `CN1[C@@H]2CC[C@H]1CC(OC(=O)C(O)(c1ccccc1)c1ccccc1)C2` (stereo partly specified), the inhibition was inactive: 2.96%.

As to `O=C(NCC1(N2CCCCC2)CCCCC1)c1cc([N+](=O)[O-])ccc1Cl`, the inhibition was inactive: 0.06%.

Regarding `Cc1ccc(C(=O)NCC2(N3CCCCC3)CCCCC2)cc1`, the inhibition was inactive: -0.16%.

As for `CCN(CC)CC(C)C(C)OC(=O)C(O)(c1ccccc1)c1ccccc1` (stereo unspecified), the inhibition was inactive: -0.72%.

Take `COc1cc(SC)ccc1C(=O)NCC1(N(C)C)CCCCC1`: the inhibition is inactive: 1.11%.

Turning to `CC(C)N1C(=O)CC2(CCN(CCOC(=O)C(O)(c3ccccc3)c3ccccc3)CC2)C1=O`, the inhibition was inactive: 0.66%.

As to `Cc1ccccc1C(=O)NCC1(N2CCCCC2)CCCCC1`, the inhibition was inactive: 1.1%.

Consider `CN(C)c1ccc(C(=O)NCC2(N(C)C)CCCCC2)cc1`, for which the inhibition was inactive: -0.88%.

On to `CN(C)C1CCCC1OC(=O)C(O)(c1ccccc1)c1ccccc1` (stereo unspecified), for which the inhibition is inactive: 1.14%.

With `COc1ccc(C(=O)NCC2(N(C)C)CCCCC2)cc1`, the inhibition was inactive: 2.33%.

Consider `CCN1CCCC(OC(=O)C2(O)c3ccccc3C=Cc3ccccc32)C1` (stereo unspecified), for which the inhibition was inactive: -0.54%.

For the molecule `Cc1cc(C(=O)NCC2(N3CCCCC3)CCCCC2)ccc1[N+](=O)[O-]`, the inhibition is inactive: 1.17%.

As for `O=C(NCC1(N2CCCCC2)CCCCC1)c1cccc(Br)c1`, the inhibition was inactive: 3.52%.

With `C=CCN1CCN(CCOC(=O)C(O)(c2ccccc2)c2ccccc2)CC1`, the inhibition was inactive: -0.72%.

Consider `O=C(NCC1(N2CCCCC2)CCCCC1)c1cc(F)c(F)cc1Cl`, for which the inhibition is inactive: 0.92%.
